# Yeast UUG start = alters start codon recognition fidelity in yeast. S. cerevisiae UUG-firefly luciferase reporter, luminescence/redox ratio. 350,000 tested, 0.13% active. activity score, % at 18.7 µM. AID 602363;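 active means replicate mean at a twofold rise or more, about +100% in these data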;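 further: firefly luciferase made from a UUG start codon reports start codon fidelity; reporter light over untreated wells divided by growth signal over untreated wells; some hits fall short of that in this replicate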
# DDE Tn7 FP inh = inhibitors of Tn7 peptide binding to human fibrin DD(E); P02675; FP displacement of FITC-Tn7 peptide from fibrin DD(E); 0% = median of compound wells per plate; inhibition, % at 8.3 µM; 370,000 tested, 0.13% active;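 active = inhibition above the mean of compounds falling within the control limits plus 3 SD of them, cut at about 14% in these data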;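 also: 0% = plate median of compound wells and 100% = 10 µM Aha-Tn7 peptide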
#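 Test system: human clot-derived fibrin DD(E) complex / Quantity: 2 µM final DD(E) protein / Incubation: 10 min plus 3 h, room temperature / Measured by: fluorescence polarization / Benchmarks: high control of 10 µM Aha-Tn7 peptide / Replicates: singlicate testing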
# Tn6 DDE FP = inhibitors of Tn6 peptide binding to human fibrin DD(E); Fibrin DD(E) TRITC-Tn6 fluorescence polarization displacement; inhibition, % at 8.3 µM; 370,000 tested, 0.21% active; AID 720509;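 active = inhibition above a per-campaign cutoff: mean of compounds within control limits plus 3 SD, cut at about 15% in these data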;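 also: 0% = median of all compound wells on the plate and 100% = blocking peptide control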
# PglD inh = blocks C. jejuni PglD acetyltransferase activity. 360,000 tested, 0.098% active. purified PglD enzyme, DTNB colorimetric CoA detection. inhibition, % at 12.5 µM; in the data active = inhibition above about 16%, passing the limit was not always enough
# PglD inh SP = blocks Campylobacter jejuni PglD acetyltransferase activity; 320 tested, under 10 active; inhibition, % at 20 µM; Purified C. jejuni PglD, DTNB absorbance 412 nm; shares compounds with PglD inh; AID 743156;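 active = mean inhibition across replicates of at least 20% with every single replicate also at 20% or more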;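 also: initial rate of CoA release by acetyl transfer from AcCoA to the UDP-4-amino sugar; 0% = median of neutral control wells and 100% = median of positive control wells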
# * marks the source's active call; other numbers are inactive results; . = no result. This is a sample that favours compounds with a hit; in the whole collection about 0.45% have one here.
# Screens in order – Yeast UUG start, PglD inh, DDE Tn7 FP inh, PglD inh SP, Tn6 DDE FP
- O=C(CN1CCCCC1)Nc1ccc(NC(=O)c2ccccc2Cl)cc1Cl
  -10, 20*, -2, -2, 0
- CC1CCCC(C)N1S(=O)(=O)c1ccc(Cl)cc1 (stereo not given)
  -13, -5, 7, ., 3
- CC1=C(C)CS(=O)N(S(=O)(=O)c2ccc(Cl)cc2)C1 (stereo not given)
  -32, 23*, 4, 0, -9
- Cc1ccc(CCC(=O)Nc2ccc(N(C)C)cc2)o1
  0, 83*, 3, -3, -1
- O=C(COC(=O)c1ccc([N+](=O)[O-])s1)NC(=O)NCc1ccccc1
  -2, 31*, 5, 0, 3
- O=C(COC(=O)c1ccc([N+](=O)[O-])s1)NCCc1ccccc1
  -8, 4, ., ., .
- CCC(=O)N1C[C@H](O)COC[C@H]2O[C@@H](CC(=O)NCC3CCCCC3)CC[C@@H]21
  -10, 2, ., ., .
- C[C@H](CO)N1C[C@H](C)[C@H](CN(C)C(=O)C2CCCCC2)Oc2ncc(C#CC(C)(C)O)cc2C1=O
  -2, ., ., ., .
- COc1ccc(-c2cn(CC[C@H]3CC[C@@H](NC(=O)Cc4ccccn4)[C@H](CO)O3)nn2)cc1
  -2, 6, ., ., .
- O=C(c1ccc(F)cc1)N1CCCCN2[C@H](CO)[C@H](c3ccc(-c4ccc(F)cc4)cc3)[C@H]2C1
  -3, -4, ., ., .
- CC(C)(C)c1ccc(-c2nnc3sc(-c4ccncc4)nn23)cc1
  -4, 24*, 0, 2, 5
- C[C@@H]1CCCCO[C@H](CN(C)Cc2ccc(C(=O)O)cc2)[C@H](C)CN([C@@H](C)CO)C(=O)c2cc(NC(=O)Nc3ccc4c(c3)OCO4)ccc2O1
  8, -3, ., ., .
- COc1ccc(/C(C)=N/Nc2ccc(C(=O)O)cc2)cc1OC
  -19, 58*, 1, 0, -3
- COc1cccc(NC(=O)N[C@H]2C=C[C@@H](CC(=O)Nc3ccccc3)O[C@H]2CO)c1
  -14, -1, ., ., .
- COCCCNC(=O)c1cccc2c(-c3cccc(C(N)=O)c3)coc12
  -1, 28*, 4, -4, -1
- CO[C@@H](CN(C)S(=O)(=O)c1ccc(F)cc1)[C@H](C)CN(C(=O)Nc1ccccc1F)[C@H](C)CO
  ., 0, ., ., .
- O=S(=O)(Nc1cccnc1)c1ccc(Br)c2ccccc12
  -3, 66*, -4, 9, 3
- O=C(Nc1ccccc1)c1ccc(Br)c(S(=O)(=O)Nc2cccnc2)c1
  ., ., -2, ., 5
- Cc1ccc2oc(=O)c(/C=C(\O)CC(C)C)nc2c1
  -6, 21*, -2, 2, 5
- COCCNC(=O)Cc1ccc(F)cc1
  ., ., -2, ., 3
- COCCNC(=O)CCCC(=O)NCCOC
  -5, 35*, -2, -2, 1
- COc1cc(C(=O)Nc2nnc(SC)s2)c([N+](=O)[O-])cc1OC
  ., ., -1, ., -4
- COc1cc(C(=O)Nc2nnc(C(F)(F)F)s2)c([N+](=O)[O-])cc1OC
  -14, 43*, 7, 2, -5
- COc1ccc(-c2cc(NC(C)=O)c3ncc(-c4ccc(OC)c(OC)c4)n3c2)c(OC)c1
  -3, 32*, 5, 1, 6
- COc1ccc(CC(=O)NC(=S)NNC(=O)COc2c(C)cccc2C)cc1
  -28, 23*, 1, -4, 13
- COc1cccc(C2CC(c3ccc(Cl)cc3)n3nc(N)nc3N2)c1 (stereo not given)
  -18, 26*, 2, 4, -9
- O=C(CNC(=O)c1ccc(Br)o1)Nc1ccc(N2CCCCCC2)cc1
  -17, -4, 3, ., 4
- O=C(CNC(=O)c1ccco1)Nc1ccc(N2CCCCCC2)cc1
  -20, 24*, 3, -4, 3
- COc1ccc(CCNc2nc3ccccc3n3nnnc23)cc1OC
  -8, 1, 1, ., -3
- c1ccc(CCNc2nc3ccccc3n3nnnc23)cc1
  -18, 25*, 1, -10, -1
- CC(C)NC(=O)Nc1ccc2c(c1)C(=O)N(C)[C@@H]1CC[C@H](CC(=O)Nc3ccccc3)O[C@@H]1CO2
  2, -1, ., ., .
- CN(Cc1nc2ccccc2[nH]1)Cc1nc(CC2CC2)no1
  ., ., -3, ., -2
- Cc1cccc2[nH]c(CN(C)Cc3nc(CC4CC4)no3)nc12
  -16, 36*, 6, -3, 1
- CC(Sc1nnc(N)s1)C(=O)Nc1ccc2c(c1)OCO2 (stereo not given)
  -7, 1, -2, ., -4
- CC(Sc1nnc(N)s1)C(=O)Nc1ccc(N2CCOCC2)cc1 (stereo not given)
  -19, 21*, 0, 0, 1

# In another format: results already given.
> CN(Cc1nc2ccccc2[nH]1)Cc1nc(CC2CC2)no1
  Yeast UUG start: .
  PglD inh: .
  DDE Tn7 FP inh: -3
  PglD inh SP: .
  Tn6 DDE FP: -2

> Cc1cccc2[nH]c(CN(C)Cc3nc(CC4CC4)no3)nc12
  Yeast UUG start: -16
  PglD inh: 36*
  DDE Tn7 FP inh: 6
  PglD inh SP: -3
  Tn6 DDE FP: 1

> CC(Sc1nnc(N)s1)C(=O)Nc1ccc2c(c1)OCO2 (stereo not given)
  Yeast UUG start: -7
  PglD inh: 1
  DDE Tn7 FP inh: -2
  PglD inh SP: .
  Tn6 DDE FP: -4

> CC(Sc1nnc(N)s1)C(=O)Nc1ccc(N2CCOCC2)cc1 (stereo not given)
  Yeast UUG start: -19
  PglD inh: 21*
  DDE Tn7 FP inh: 0
  PglD inh SP: 0
  Tn6 DDE FP: 1

# High-throughput results as filed in PubChem.
